According to ChEMBL document CHEMBL5518236, “Discovery of Clinical Candidate AZD5462, a Selective Oral Allosteric RXFP1 Agonist for Treatment of Heart Failure” (J Med Chem, 2024):

Tests used:
[1] = molecular target: T1, Leucine-rich repeat-containing G-protein coupled receptor 5 (Homo sapiens) (UniProt O75473); assay: Agonist activity at human LGR5 measured upto 100 uM by Discovery X assay
T1 sequence (whole entry): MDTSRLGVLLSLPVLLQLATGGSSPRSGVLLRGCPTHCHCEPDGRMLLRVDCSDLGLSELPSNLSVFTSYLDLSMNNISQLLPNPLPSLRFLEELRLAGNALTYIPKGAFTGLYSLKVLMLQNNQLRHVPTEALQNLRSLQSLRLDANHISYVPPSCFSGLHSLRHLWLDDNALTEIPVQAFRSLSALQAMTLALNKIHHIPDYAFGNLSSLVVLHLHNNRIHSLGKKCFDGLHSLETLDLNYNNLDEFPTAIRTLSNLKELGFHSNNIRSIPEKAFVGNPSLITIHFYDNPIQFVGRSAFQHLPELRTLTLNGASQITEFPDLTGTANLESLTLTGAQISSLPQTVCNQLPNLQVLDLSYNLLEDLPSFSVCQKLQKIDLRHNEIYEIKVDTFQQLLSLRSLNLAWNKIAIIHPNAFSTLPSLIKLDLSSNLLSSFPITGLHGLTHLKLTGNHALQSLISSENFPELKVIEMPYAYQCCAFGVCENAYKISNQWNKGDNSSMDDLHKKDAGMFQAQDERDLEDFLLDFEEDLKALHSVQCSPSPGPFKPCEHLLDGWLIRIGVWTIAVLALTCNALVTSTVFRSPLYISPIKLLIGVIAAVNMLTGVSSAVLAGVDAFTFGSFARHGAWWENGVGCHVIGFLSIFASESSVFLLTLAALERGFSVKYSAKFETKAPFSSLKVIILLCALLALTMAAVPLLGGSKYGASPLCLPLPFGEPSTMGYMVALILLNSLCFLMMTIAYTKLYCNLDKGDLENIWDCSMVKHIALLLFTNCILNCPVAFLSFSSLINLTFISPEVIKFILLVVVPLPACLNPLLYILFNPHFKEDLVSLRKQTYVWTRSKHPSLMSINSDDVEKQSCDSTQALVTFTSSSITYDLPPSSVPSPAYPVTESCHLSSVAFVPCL

[2] = molecular target: T2, Follicle-stimulating hormone receptor (Homo sapiens) (UniProt P23945); assay: Agonist activity at human FSHR measured upto 100 uM by Discovery X assay; assay type: functional
T2 sequence (whole entry): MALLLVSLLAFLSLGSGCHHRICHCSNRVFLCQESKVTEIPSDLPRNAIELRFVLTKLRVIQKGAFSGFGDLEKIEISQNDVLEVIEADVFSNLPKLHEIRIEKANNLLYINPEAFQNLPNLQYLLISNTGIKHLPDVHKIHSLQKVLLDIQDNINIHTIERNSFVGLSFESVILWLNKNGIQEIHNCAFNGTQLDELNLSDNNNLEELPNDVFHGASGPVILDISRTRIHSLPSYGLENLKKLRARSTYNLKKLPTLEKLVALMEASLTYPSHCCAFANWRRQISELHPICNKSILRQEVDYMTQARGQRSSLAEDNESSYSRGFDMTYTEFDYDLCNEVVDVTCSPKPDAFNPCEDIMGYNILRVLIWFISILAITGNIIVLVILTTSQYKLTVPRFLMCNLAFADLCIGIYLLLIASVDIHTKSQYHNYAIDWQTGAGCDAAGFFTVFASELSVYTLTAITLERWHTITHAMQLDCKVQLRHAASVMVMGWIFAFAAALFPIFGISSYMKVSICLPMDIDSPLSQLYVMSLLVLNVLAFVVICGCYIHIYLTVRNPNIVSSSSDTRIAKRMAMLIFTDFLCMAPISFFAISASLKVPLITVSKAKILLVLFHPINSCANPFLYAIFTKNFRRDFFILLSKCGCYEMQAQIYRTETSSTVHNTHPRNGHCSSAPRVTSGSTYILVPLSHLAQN

[3] = molecular target: T3, Leucine-rich repeat-containing G-protein coupled receptor 4 (Homo sapiens) (UniProt Q9BXB1); assay: Agonist activity at human LGR4 measured upto 100 uM by Discovery X assay
T3 sequence (whole entry): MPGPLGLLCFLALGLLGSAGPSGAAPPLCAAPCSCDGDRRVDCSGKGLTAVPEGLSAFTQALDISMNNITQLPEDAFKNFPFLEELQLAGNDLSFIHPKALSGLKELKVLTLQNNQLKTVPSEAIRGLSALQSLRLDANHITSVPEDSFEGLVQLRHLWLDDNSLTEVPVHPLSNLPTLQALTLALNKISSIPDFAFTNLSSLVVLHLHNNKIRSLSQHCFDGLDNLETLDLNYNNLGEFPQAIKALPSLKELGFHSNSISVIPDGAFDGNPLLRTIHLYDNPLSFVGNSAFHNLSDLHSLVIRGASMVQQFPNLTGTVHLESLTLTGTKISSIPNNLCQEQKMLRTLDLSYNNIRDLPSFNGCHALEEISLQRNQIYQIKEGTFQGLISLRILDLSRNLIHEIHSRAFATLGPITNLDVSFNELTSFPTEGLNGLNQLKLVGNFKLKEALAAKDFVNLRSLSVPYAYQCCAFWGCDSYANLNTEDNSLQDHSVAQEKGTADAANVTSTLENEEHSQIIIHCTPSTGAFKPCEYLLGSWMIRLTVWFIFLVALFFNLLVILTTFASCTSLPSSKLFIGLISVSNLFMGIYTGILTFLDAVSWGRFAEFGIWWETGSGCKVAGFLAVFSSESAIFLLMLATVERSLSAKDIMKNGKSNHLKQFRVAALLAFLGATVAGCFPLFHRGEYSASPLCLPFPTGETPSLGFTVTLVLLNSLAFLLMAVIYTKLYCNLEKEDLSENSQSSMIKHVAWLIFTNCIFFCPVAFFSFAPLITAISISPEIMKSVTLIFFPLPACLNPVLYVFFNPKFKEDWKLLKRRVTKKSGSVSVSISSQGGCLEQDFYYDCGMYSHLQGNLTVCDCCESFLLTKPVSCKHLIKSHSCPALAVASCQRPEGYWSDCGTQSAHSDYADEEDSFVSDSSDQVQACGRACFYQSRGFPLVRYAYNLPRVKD

[4] = molecular target: T4, Leucine-rich repeat-containing G-protein coupled receptor 6 (Homo sapiens) (UniProt Q9HBX8); assay: Agonist activity at human LGR6 measured upto 100 uM by Discovery X assay
T4 sequence (whole entry): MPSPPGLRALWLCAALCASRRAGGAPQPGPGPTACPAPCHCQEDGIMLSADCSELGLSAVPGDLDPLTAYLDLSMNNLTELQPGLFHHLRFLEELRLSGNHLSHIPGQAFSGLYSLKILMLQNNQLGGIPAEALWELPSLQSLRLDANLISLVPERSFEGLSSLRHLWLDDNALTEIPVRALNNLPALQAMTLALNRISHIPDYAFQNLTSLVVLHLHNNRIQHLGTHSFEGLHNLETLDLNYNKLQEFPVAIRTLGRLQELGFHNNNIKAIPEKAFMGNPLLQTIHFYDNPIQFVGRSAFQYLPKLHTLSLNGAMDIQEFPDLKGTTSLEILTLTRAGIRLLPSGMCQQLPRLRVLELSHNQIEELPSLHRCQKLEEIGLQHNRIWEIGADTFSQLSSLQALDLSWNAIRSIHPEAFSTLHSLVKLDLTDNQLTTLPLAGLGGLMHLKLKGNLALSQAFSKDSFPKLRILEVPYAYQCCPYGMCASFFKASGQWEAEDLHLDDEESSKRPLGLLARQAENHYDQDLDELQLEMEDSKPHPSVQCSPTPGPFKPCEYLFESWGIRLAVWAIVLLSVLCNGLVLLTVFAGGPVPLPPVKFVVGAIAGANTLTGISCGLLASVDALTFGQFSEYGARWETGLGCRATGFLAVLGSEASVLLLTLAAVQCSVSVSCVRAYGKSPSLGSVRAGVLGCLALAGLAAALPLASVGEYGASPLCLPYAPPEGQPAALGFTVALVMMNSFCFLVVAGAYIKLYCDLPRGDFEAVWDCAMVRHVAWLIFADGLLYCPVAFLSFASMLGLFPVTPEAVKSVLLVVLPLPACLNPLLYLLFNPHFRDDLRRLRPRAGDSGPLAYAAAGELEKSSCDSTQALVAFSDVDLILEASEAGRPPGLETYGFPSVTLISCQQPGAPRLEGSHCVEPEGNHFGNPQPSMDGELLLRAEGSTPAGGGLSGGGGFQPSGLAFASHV

Measured: Activity

COc1cc(F)c(O[C@H]2CC[C@@](C)(C(=O)O)CC2)cc1C(=O)N[C@@H]1[C@H]2CC[C@H](C2)[C@@H]1C(=O)NCC1(C)CCC1
inactive: all assays above

COc1cc(F)c(O[C@H]2CC[C@@](C)(C(=O)O)CC2)cc1C(=O)N[C@H]1[C@@H]2CC[C@@H](C2)[C@H]1C(=O)NCC1(C)CCC1
inactive: all assays above

Active and inactive are the calls of the source.
